The subject of test [1] is MDA-MB-435 β4+-expressing cells (3A7). In words: Matrigel chemoinvasion assay, MDA-MB-435 β4+ transfectants. The format is cell-based, human.
The test system of test [2] is Clone A colon cancer cell line. In words: Matrigel chemoinvasion assay, Clone A cells. It counts as cell-based, human. To be noted: transient transfection. The source says: FIGS. 3A-3C show the role of NFAT-5 in mediating carcinoma invasion. FIG. 3A is a graph showing luciferase levels in MDA-MB-435 cells expressing vector alone, β4.ΔCYT (3C12), or wild-type β4^+ (3A7 clone) that were transiently transfected with an NFAT-5-luciferase reporter construct (NFAT-5-luc). Luciferase activity is shown as relative luciferase units. […] The lysates were resolved by SDS PAGE and immunoblotted with anti-NFAT-5 (α-NFAT-5, top panel) or anti-p85 (α-p85, bottom panel) The position of the 175 kDa and 90 kDa markers are indicated (left). […] The ability of the transfected cells to invade Matrigel was then assayed and the data are shown as the relative invasion of NFAT-5-transfected cells compared to vector alone-transfected cells (100%).
Invasion assays were performed using standard methods (see Shaw et al., Cell 91:949-960, 1997) using Transwell chambers coated with Matrigel. […] Cells that stained positive for β-galactosidase expression were counted, and the mean of triplicate assays for each experimental condition was used as % relative invasion. […]

As for “VIVIT peptide: peptide (SEQ ID NO:18) which blocks the ability of calcineurin to dephosphorylate and activate NFAT; transfected as GFP-VIVIT (MAGPHPVIVITGPHEE; listed as Homo sapiens)”, in test [1] (co-transfected with VIVIT), the “invasion increased by constitutively active calcineurin allele” value is reported as “inhibited”. Besides, the “carcinoma invasion (relative invasion vs vector alone)” value in test [1] (transient transfection, NIH 3T3 conditioned media as chemoattractant) is given as “reproducibly inhibited carcinoma invasion”; in test [2], “blocked invasion”.

The values are drawn from patent publication US20050100897A1, “NFAT transcription factors in tumor progression” (priority 2002, published 2005).
